This assay concerns the target Prostaglandin G/H synthase 1 (Homo sapiens, UniProt P23219). The experiment in a line: Inhibition of COX1 in A23187-stimulated human platelets assessed as reduction in TXA2 production. An outline of the steps:
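Washed human platelets preincubated with increasing compound concentrations, then challenged with calcium ionophore A23187. TXB2 (stable TXA2 metabolite) in supernatant quantified by LC−MS/MS with TXB2-d4 internal standard.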

Chains of the proteins cited; added tags and fusions are not shown.
UniProt P23219, whole entry: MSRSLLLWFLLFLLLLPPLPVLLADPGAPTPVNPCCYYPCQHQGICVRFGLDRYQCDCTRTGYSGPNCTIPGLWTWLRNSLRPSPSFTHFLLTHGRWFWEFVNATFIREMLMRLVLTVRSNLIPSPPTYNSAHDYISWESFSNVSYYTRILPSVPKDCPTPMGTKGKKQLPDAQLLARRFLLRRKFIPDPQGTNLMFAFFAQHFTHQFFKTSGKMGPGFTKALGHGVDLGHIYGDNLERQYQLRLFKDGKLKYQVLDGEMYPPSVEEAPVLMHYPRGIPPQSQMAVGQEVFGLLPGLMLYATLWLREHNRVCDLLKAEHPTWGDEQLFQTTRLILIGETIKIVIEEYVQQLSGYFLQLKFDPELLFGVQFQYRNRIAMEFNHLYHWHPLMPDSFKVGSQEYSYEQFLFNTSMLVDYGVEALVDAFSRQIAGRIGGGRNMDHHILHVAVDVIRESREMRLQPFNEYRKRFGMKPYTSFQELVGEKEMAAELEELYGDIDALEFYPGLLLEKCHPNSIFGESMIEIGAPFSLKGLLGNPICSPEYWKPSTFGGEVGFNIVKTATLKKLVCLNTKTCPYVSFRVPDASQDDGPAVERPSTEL

Take `O=C(O)CCc1nc(-c2ccccc2)c(-c2ccccc2)o1` [OXAPROZIN]: the IC50 came to 740 nM.

The values above are taken from ChEMBL document CHEMBL4414562, “Discovery of the First in Vivo Active Inhibitors of the Soluble Epoxide Hydrolase Phosphatase Domain” (J Med Chem, 2019).
